Measured values as given in PMC9468336, “The choanoflagellate pore-forming lectin SaroL-1 punches holes in cancer cells by targeting the tumor-related glycosphingolipid Gb3” (Communications Biology, 2022).

Target: SaroL-1
Test: Isothermal titration calorimetry of galactosyl-ligands with SaroL-1
Format: binding, Salpingoeca rosetta
Details: ITC, 25 °C
Method: ITC experiments were performed with MicroCaliTC200 (Malvern Panalytical). Experiments were carried out at 25 °C ± 0.1 °C. SaroL-1 and ligands samples were prepared in Buffer A. The ITC cell contained SaroL-1 in a concentration range from 0.05 mM to 0.16 mM. The syringe contained the ligand solutions in a concentration from 10 to 50 mM. 2 μL of ligands solutions were injected into the sample cell at intervals of 120 s while stirring at 750 rpm. Integrated heat effects were analysed by nonlinear regression using one site binding model (MicroCal PEAQ-ITC Analysis software). The experimental data were fitted to a theoretical curve, which gave the dissociation constant (Kd) and the enthalpy of binding (∆H).

`OC[C@H]1O[C@H](O[C@@H]2[C@H](O)[C@@H](O)C(O)O[C@@H]2CO)[C@H](O)[C@@H](O)[C@H]1O` (stereo partly shown) [αGal1-4Gal] was tested, and the Kd was 390 ± 0.2 µM.
